## Boiling point values, as collected for the OPERA models

From the experimental data distributed with OPERA 2.9.

Boiling points are in °C, nominally at 760 mmHg.

compound | bp (°C)
CC(=O)Oc1ccccc1C(=O)O | 140
CCCCCC1CCC(C2CC=C(c3ccc(OCC)c(F)c3F)CC2)CC1 (stereo not given) | 403.2
CCCCCC(C)CO (stereo not given) | 193
C/C=C/CCC1CCC([C@H]2CC[C@H](CCC)CC2)CC1 (some centres undefined) | 365.8
Brc1cccc(C2OCCO2)c1 | 132
CN(C)CCCNC1CC(C)(C)NC(C)(C)C1 | 283.2
C1CC2OC2C1OC1CCC2OC12 (stereo not given) | 203
C=CCCCCCCCC(=O)N(C)C | 293
CC(CCC(=O)O)C(=O)O (stereo not given) | 289
CCCCCCCCCCCCCCCCCCOCCCCCCCCCCCCCCCCCC | 401
O=c1[nH]sc2ccccc12 | 328.7
CCCCCCCCC1CC2C=CC1C2 (stereo not given) | 264.2
CCN1CCN(CCC(=O)OCC(CC)(COC(=O)CCN2CCN(CC)CC2)COC(=O)CCN2CCN(CC)CC2)CC1 | 278.3
C=C(F)C(F)(F)C(F)(F)F | 5
CC(C)c1cc(C(C)C)c(N=C=O)c(C(C)C)c1N=C=O | 305.4
C=C(C)C(=O)OCCCC(F)(F)C(F)(F)C(F)(F)C(F)(F)C(F)(F)C(F)(F)F | 232.9
C=Cc1ccc(C(C)(C)C)cc1 | 218.9
Clc1cccc2cnsc12 | 189
CCCC1CCC(c2ccc(OCC)c(F)c2F)CC1 (stereo not given) | 337
CCOC(C=C(C)CCC=C(C)C)OCC | 230
Nc1ccc(Cl)c(S(=O)(=O)O)c1 | 290
O=C1NCCN1CCO | 280
CCCCOCCOC(=O)c1ccccc1C(=O)OCCOCCCC | 270
C=C(CC(C)(C)c1ccccc1)c1ccccc1 | 312.1
CCc1ccc(C2OC3COC(c4ccc(CC)cc4)OC3C(C(O)CO)O2)cc1 (stereo not given) | 337.1
C/C(=C\c1ccc(C)cc1)CO | 275.4
C=CN1CC(C)OC1=O (stereo not given) | 254
O=C1COCCN1c1ccccc1 | 331.1
C/C(=C\c1ccc(C)cc1)CCC=O | 266
CC(O)CC(C)CCc1ccccc1 (stereo not given) | 275.9
CC[Si](ON=C(C)C)(ON=C(C)C)ON=C(C)C | 301.8
CCOC(=O)C(C)(O)c1ccc(Oc2ccccc2)cc1 (stereo not given) | 280
CNC(=O)c1cc(C#N)cc(C)c1N | 302
CC(C)CCOC(=N)O | 220
CC1=CCCC(C)(C)C1CCC(C)C=O (stereo not given) | 267.3
CCOC(C)OC(C)C#CC1(O)C=C(C)CCC1C(C)C (stereo not given) | 184

Again, the 6 entries with the lowest bp:

compound	bp (°C)
C=C(F)C(F)(F)C(F)(F)F	5
Brc1cccc(C2OCCO2)c1	132
CC(=O)Oc1ccccc1C(=O)O	140
CCOC(C)OC(C)C#CC1(O)C=C(C)CCC1C(C)C (stereo not given)	184
Clc1cccc2cnsc12	189
CCCCCC(C)CO (stereo not given)	193

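OPERA's authors assembled the values from existing databases and did not measure them anew. One number stands for a compound and property, with no spread given. Method and conditions are not stated for these values. A value may pool stereoisomers or salt forms, and the file does not say which form was measured. Some upstream entries may be estimates or bounds without being marked so.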